Measurements from patent US20060167271A1, “Purified compounds that inhibit intracellular alphax4/paxillin binding” (priority 2002, published 2006).

Protein sequences, listed by entry. Tags and fused reporters are not part of them. Residues count along the entry.
UniProt P13612, 1002-1032 limits assumed: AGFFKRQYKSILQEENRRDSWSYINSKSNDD
UniProt P49023, 1-557 isoform 2: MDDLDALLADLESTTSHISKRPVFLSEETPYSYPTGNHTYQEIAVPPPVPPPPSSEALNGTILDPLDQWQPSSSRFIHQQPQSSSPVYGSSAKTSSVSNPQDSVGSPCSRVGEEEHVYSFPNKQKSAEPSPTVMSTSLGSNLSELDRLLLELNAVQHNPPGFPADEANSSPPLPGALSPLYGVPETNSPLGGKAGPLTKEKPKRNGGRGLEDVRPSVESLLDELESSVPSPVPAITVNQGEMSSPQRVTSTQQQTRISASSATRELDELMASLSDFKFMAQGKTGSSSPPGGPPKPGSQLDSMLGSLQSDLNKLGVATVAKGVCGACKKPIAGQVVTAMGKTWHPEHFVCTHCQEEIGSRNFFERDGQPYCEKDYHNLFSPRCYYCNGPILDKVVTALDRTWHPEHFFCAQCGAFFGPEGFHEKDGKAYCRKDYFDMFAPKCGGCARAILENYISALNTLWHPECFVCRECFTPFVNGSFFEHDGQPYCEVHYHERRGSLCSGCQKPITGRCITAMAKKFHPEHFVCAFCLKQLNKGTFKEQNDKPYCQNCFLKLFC

Biological target: Paxillin/α4 binding (immobilized His-tagged α4 tail, soluble recombinant Paxillin) (Homo sapiens, UniProt P13612+P49023)
Experiment: Immobilized Paxillin/α4 binding assay (ELISA)
Conditions: for Inhibition (%) of α4/Paxillin Binding by Deconvoluted Samples of 11-AxByCz: 1 μM; for IC50: read-out: Inhibition of α4/Paxillin Binding by Deconvoluted Samples of 11-AxByCz (IC50)
Procedure: FIG. 4 is a schematic representation of the high throughput screening by ELIZA used herein in which the α4 tail is coated onto a Ni-NTA microtiter plate (a), Paxillin is permitted to bind to α4 (b), first antibody is added (anti-Paxillin) (c), second antibody is added (HRP-conjugated, anti-mouse) (d), and Pax/α4 binding efficiency is measured by detection at 490 nm (e). For binding inhibition, compounds were added during Paxillin incubation (step b). […], zero % inhibition was measured from incubation with Paxillin and no compound.
Initially, roughly 40,000 compounds were screened in approximately 2000 wells (most as a mixture of 10 compounds, 50 μM total concentration) in an ELISA assay using an immobilized His-tagged α4 tail [Pfaff et al. (1998) J. Biol. Chem. 273, 6104-6109] and examining the binding inhibition of soluble recombinant Paxillin [Salgia et al. (1995) J. Biol. Chem. 270, 5039-5047] (FIG. 3).
Paxillin/α4 binding assays were performed as follows. Ni-NTA HisSorb microtiter strips (Qiagen) were coated overnight at 4° C. with purified α4 tail integrin (5 μg/ml, 100 μl per well) in PBS buffer (8 mM Na2HPO4, 1.5 mM KH2PO4, 135 mM NaCl, 2.5 mM KCl [pH 7.4]) supplemented with heat-denatured BSA (0.2%). The plates were washed three times with PBS buffer to remove unbound integrin, blocked with 150 μl of heat-denatured 1% BSA (denatured at 85° C. for 30 minutes and supplemented with 0.05% sodium azide) for 1 hour at room temperature, and washed again three times with PBS buffer.
Purified Paxillin in binding buffer (10% DMSO, 0.2% BSA in PBS buffer) was added to the wells at a concentration of 5 μg/ml in the presence or absence of compounds (1 mM DMSO stock solutions). […] As a control, blocked wells without integrin were examined for binding. After 1 hour at room temperature, the wells were washed three times with PBS buffer, incubated with first antibody (12CA5 ascites, 1/10000 in PBS plus 1% BSA, 100 μL) for 1 hour at room temperature, then with second antibody (100 μl HRP-conjugated anti-mouse [Biosource] in PBS buffer plus 1% BSA) for 1 hour at room temperature. Each well was treated with 50 μl of substrate solution (4 mg o-phenylenediamine, 4 μl of 30% H2O2, 80 mM citrate phosphate [pH 5]) and stopped after 10 minutes at room temperature with 50 μl H2SO4 (2 N). Binding was quantitated on a vmax kinetic microplate reader (Molecular Devices) at 490 nm. Zero % inhibition control was measured with Paxillin and no compound, and 100% inhibition control (background) was measured with no Paxillin and no compound. Each well was duplicated and percent inhibition was averaged.

Row | Structure (SMILES) | Inhibition (%) of α4/Paxillin Binding by Deconvoluted Samples of 11-AxByCz | IC50
1 | COC(=O)c1cc2c3c(ccc2[nH]1)N(C(=O)c1cc2c4c(ccc2[nH]1)N(C(=O)c1cccc(NC(=O)CCCN(C)C)c1)CC4)CC3 | 58% | 1400 nM
2 | COC(=O)c1cc2c3c(ccc2[nH]1)N(C(=O)c1cc2c4c(ccc2[nH]1)N(C(=O)c1cc2cc(NC(=O)CCCN(C)C)ccc2o1)CC4)CC3 | 81% | 400 nM
3 | COC(=O)c1cc2c3c(ccc2[nH]1)N(C(=O)c1cc2c4c(ccc2[nH]1)N(C(=O)c1csc(NC(=O)CCCN(C)C)n1)CC4)CC3 | 80% | 400 nM
4 | COC(=O)c1cc2c3c(ccc2[nH]1)N(C(=O)c1cc2c4c(ccc2[nH]1)N(C(=O)c1cc2cc(NC(=O)CCCN(C)C)ccc2[nH]1)CC4)CC3 | 63% | 4800 nM
5 | COC(=O)c1cc2c3c(ccc2[nH]1)N(C(=O)c1cc2c4c(ccc2[nH]1)N(C(=O)c1cc(NC(=O)CCCN(C)C)cs1)CC4)CC3 | 76% | 400 nM
6 | COC(=O)c1cc2c3c(ccc2[nH]1)N(C(=O)c1cc2c4c(ccc2[nH]1)N(C(=O)c1nc(NC(=O)CCCN(C)C)cn1C)CC4)CC3 | 68% | 500 nM
7 | COC(=O)c1cc(NC(=O)c2cc3c4c(ccc3[nH]2)N(C(=O)c2cc3c5c(ccc3[nH]2)N(C(=O)CCCN(C)C)CC5)CC4)cn1C | 74% | 500 nM
8 | COC(=O)c1cc2c3c(ccc2[nH]1)N(C(=O)c1cc2c4c(ccc2[nH]1)N(C(=O)c1cc2cc(NC(=O)CCCN(C)C)ccc2s1)CC4)CC3 | 74% | 700 nM
9 | COC(=O)c1cc2c3c(ccc2[nH]1)N(C(=O)c1cc2c4c(ccc2[nH]1)N(C(=O)c1ccc(NC(=O)CCCN(C)C)cc1)CC4)CC3 | 70% | 600 nM
10 | COC(=O)c1cc2c3c(ccc2[nH]1)N(C(=O)c1cc2c4c(ccc2[nH]1)N(C(=O)c1cc(NC(=O)CCCN(C)C)cn1C)CC4)CC3 | 66% | 2200 nM
